Earlier results on one compound are cited in US20240343692A1 (priority 2021, published 2024).

By UniProt entry, the sequences of proteins in these tests, tags left out.
UniProt P41595, whole entry: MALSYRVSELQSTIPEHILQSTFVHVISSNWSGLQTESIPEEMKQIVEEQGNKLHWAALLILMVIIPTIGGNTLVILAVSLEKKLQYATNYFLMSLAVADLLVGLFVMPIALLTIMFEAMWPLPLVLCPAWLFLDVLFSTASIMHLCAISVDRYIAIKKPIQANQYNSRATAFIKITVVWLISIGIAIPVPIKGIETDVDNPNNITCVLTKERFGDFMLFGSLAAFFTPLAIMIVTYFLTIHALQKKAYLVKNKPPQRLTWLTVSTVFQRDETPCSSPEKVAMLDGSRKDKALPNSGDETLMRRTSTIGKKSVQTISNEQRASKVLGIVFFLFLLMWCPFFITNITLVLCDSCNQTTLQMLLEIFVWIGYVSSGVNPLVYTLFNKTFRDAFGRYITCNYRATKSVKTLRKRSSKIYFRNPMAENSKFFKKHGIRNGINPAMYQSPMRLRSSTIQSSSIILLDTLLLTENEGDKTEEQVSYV

Each structure is given as a SMILES string. pEC50: −log10 of the molar value.

As usually defined, the pEC50 is the EC50 on a negative log10 scale, so that one unit is a factor of ten.

This data set deals with Serotonin 5-HT2B (Homo sapiens, UniProt P41595). As to conditions: read-out: activation potency EC50, Serotonin 5-HT2B; data from ref. 36; cited from earlier work.

For the compound `CN(C)CCc1c[nH]c2cccc(O)c12` [Psilocin], the pEC50 is less than 4.70.
